Values quoted from earlier work, collected in US20220183964A1, “IMPLANTABLE POLYMER DEPOTS FOR THE CONTROLLED, SUSTAINED RELEASE OF THERAPEUTIC AGENTS” (Foundry Therapeutics, Inc., priority 2019, published 2022).

Details: PVP electrospun nanofiber with 2.5 wt % Tween 20

maraviroc
time for complete release of 28 wt % maraviroc: six minutes
